Molecules are shown by their SMILES. This is a selection; strong and weak results do not stand in their true shares. Activity calls are given as the source filed them. Calls follow the shape of the dose curve; as a rule, active = well fitted inhibition curve with a large enough effect; inconclusive = small, poorly fitted or top-dose-only effect; inactive = flat fitted curve, though single readings scatter.

The chains behind the UniProt entries cited, without tags or fusion partners. Where a name states a change or a piece, a line headed by the entry shows the natural chain unless it says otherwise.
UniProt P18054: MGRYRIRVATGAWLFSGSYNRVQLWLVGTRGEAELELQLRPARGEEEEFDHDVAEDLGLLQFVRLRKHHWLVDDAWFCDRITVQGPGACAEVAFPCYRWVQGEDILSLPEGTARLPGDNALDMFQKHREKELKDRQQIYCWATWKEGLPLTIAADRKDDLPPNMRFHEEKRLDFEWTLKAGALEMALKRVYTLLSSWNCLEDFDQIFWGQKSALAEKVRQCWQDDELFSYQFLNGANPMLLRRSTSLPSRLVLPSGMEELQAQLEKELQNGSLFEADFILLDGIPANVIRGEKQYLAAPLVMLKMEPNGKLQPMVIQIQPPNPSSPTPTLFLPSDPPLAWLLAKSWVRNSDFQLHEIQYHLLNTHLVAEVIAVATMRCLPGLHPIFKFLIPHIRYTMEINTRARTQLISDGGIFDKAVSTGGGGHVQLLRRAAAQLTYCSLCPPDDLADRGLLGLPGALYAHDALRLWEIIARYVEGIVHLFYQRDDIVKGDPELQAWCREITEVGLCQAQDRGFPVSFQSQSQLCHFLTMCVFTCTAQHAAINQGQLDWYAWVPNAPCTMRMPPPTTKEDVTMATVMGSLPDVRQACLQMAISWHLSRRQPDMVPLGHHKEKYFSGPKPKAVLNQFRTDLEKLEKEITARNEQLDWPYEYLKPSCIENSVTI

The results in this text go back to PubChem BioAssay AID1452 (National Center for Advancing Translational Sciences (NCATS), 2008).
Potency is read from the fitted curve at half-maximal effect.

The experiment addresses Polyunsaturated fatty acid lipoxygenase ALOX12 (Homo sapiens) (UniProt P18054). The experiment in a line: qHTS Assay for Inhibitors of 12-hLO (12-human lipoxygenase). Also: nearly all actives have a fitted effect of over 55% in size. As to conditions: purified 12-hLO, xylenol orange hydroperoxide absorbance. An excerpt: Assay Provider: Holman, T.R., University of California, Santa Cruz Screening Center PI: Austin, C.P. Screening Center: NIH Chemical Genomics Center [NCGC] Human lipoxygenase 12hLO is a member of the closely related lipoxygenase family of enzymes which catalyze the site-specific oxidation of arachidonic acid to various hormone precursor molecules and as such is a candidate for drug development in a variety of disease areas, such as cancer and inflammation. Inhibition of 12hLO activity was screened by utilizing arachidonic acid as a substrate. The extent of hydroperoxide product formation was measured by a secondary chromogenic reaction in which xylenol orange (XO, Sigma-Aldrich, cat. number 39,818-7) reacts with the ferric ions produced from the reaction between the hydroperoxide and ferrous ions. The Fe(III)-XO complex is characterized with red-shifted absorbance at 560 nm. A purified preparation of human 12hLO was supplied by Professor Ted Holman, University of California, Santa Cruz.
Assay Protocol: Buffer: 25 mM Hepes pH 7.0, 0.01% Triton X-100. Reagents/Controls: Buffer in columns 3 and 4 as negative control (no enzyme). […] The absorbance at 405 and 573 nm were measured using ViewLux (Perkin-Elmer) High-throughput CCD imager and absorbance protocol settings. The 573-to-405 absorbance ratio was used to compute reaction progress.
A general note: In qHTS, concentration-response curves come from the screen itself.
For the molecule `COc1cccc(CNc2ccc(S(=O)(=O)Nc3nccs3)cc2)c1O`, the Potency is active: 15.8 µM.

Turning to `CC[n+]1c(/C=C/N(C)c2ccccc2)oc2ccc(Cl)cc21`, the Potency was active: 20 µM.
